{"source": "patent US20030181390A1", "about": "“Amino acid conjugates providing for sustained systemic concentrations of GABA analogues” (priority 2002, published 2003)", "conditions": "rat, single oral dose of prodrug, 25 mg-equivalents of gabapentin per kg", "method": "The pharmacokinetics of the prodrugs prepared in Examples 1 and 3 were examined in rats. […] Animals were fasted overnight prior to dosing and until 4 hours post-dosing. Serial blood samples were obtained over 24 hours following dosing and blood was processed for plasma by centrifugation. Plasma samples were stored at −80° C. until analyzed.\nPlasma (50 μL) was precipitated by addition of […] of methanol and supernatant was injected directly onto the LC/MS/MS system. […] Following oral administration of gabapentin prodrugs, concentrations of prodrug and gabapentin in plasma were monitored over 24 hours.", "data": [{"substance": "L-Tyrosine-(O-2-Bromobenzyloxycarbonyl)-Gabapentin [4d]", "values": [{"measurement": "Cmax for prodrug (Cmax PD) in plasma", "value": "< 4", "unit": "ng/mL"}]}]}
